Values of other authors as cited in publication PMC8278521.

By UniProt entry, the sequences of proteins in these tests, tags left out. Residues count along the entry.
UniProt P19235, 25-250: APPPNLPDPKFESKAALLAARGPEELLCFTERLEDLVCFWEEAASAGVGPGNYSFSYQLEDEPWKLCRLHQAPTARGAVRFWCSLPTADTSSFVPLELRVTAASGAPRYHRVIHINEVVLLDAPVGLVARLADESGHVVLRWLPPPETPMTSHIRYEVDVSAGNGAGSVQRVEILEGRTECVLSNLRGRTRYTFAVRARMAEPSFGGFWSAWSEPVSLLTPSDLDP

Target: EPOR homodimer (Homo sapiens) (UniProt P19235)

For EPO (from UniProt P01588), the Kd is given as 0.15 nM.
